AlphaSeq binding of Ab-14 light chain variants to a spike HR2 peptide

Reference: Li et al. 2023, doi:10.1038/s41467-023-39022-2. File: FLAb, binding data.

Target: peptide PDVDLGDISGINAS, taken from heptad repeat 2 (HR2) of SARS-CoV-2 spike.

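This is the validation round: designs drawn from the data on random variants, tested in the same kind of assay. Several design methods are mixed in this list. Affinity was read by AlphaSeq, a pooled yeast mating assay with surface-displayed partners. Binding brings cells together so that they mate, and sequencing counts the barcode pairs among the diploids. Scores were corrected for input abundance and mapped to Kd with protein pairs of known affinity run in the same pool. Each pool was mated in six replicate cultures.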

Ab-14 is the parent antibody, in scFv form: VH, then a 15-residue (Gly4Ser)3 linker, then VL. The heavy chain is unchanged in all variants.
VH: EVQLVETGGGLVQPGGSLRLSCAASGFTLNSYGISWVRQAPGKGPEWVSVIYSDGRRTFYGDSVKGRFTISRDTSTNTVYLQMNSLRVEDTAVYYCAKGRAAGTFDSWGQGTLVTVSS
VL: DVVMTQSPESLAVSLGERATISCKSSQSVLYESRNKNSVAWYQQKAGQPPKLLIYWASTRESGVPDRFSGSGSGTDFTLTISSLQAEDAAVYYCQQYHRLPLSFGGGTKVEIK

Positions count from residue 1 of the parent VL; S25H puts H in place of S. This list holds designs with at most six substitutions. Each Kd is an estimate from the mating assay, the geometric mean of the replicates in which the pair was seen; lower is stronger. An entry "nd" has no value in the source: the pair was not observed among the diploids in any replicate. This suggests poor binding but is not conclusive.

For S25H/W56E/T59Q, the assay gave 1.7 nM (6 of 6 replicates; controls 1 of 18). The variant R34A/S38D/W56E/Q96V/L100I gave 10 nM (6 of 6 replicates; controls 0 of 18). The variant S25L/V29C/W56N/T59Y gave 1.1 nM (6 of 6 replicates; controls 2 of 18). With W56E/T59N/L102F the result was 2.1 nM (6 of 6 replicates; controls 0 of 18). For S25M/K36L/W56S, the assay gave 1.1 nM (6 of 6 replicates; controls 1 of 18). The variant S28P/V29L/R34S/W56M showed 5.6 nM (6 of 6 replicates; controls 0 of 18).

For S25L/S26L/Q27W/R34N/W56H/S62D, the assay gave 12 nM (6 of 6 replicates; controls 1 of 18). The variant Q27F/V29Y/Y31I/W56E showed 820 pM (6 of 6 replicates; controls 0 of 18). The variant S25L/V29Y/L30E/W56N showed 310 pM (6 of 6 replicates; controls 2 of 18). The variant Q27S/Q96T showed 58 nM (1 of 6 replicates; controls 1 of 18). With S25L/V29E/N37M/W56N/T59Q the result was 1.5 nM (6 of 6 replicates; controls 0 of 18). For S26L/K36G, the assay gave 18 nM (1 of 6 replicates; controls 1 of 18).

The variant Q27I/V29E/L30S/W56E/S103M showed 1.1 nM (6 of 6 replicates; controls 1 of 18). The variant Q27T/W56D gave 1.7 nM (6 of 6 replicates; controls 1 of 18). For S25Y/V29W/W56G/T59A/S62V, the assay gave 2.6 nM (6 of 6 replicates; controls 0 of 18). The variant K24H/Q27P/S33D/K36G/W56N gave 12 nM (6 of 6 replicates; controls 0 of 18). For K24Q/S25L/V29F/W56G, the assay gave 800 pM (6 of 6 replicates; controls 1 of 18). With Q27D/W56D/E61S the result was 11 nM (6 of 6 replicates; controls 0 of 18).

For S25L/L30M/Y31M/W56H, the assay gave 960 pM (6 of 6 replicates; controls 0 of 18). The variant S25L/S26Q/E32S/W56N/S62D showed 860 pM (6 of 6 replicates; controls 2 of 18). The variant S25L/S26Q/V29Q/L30G/W56N gave 1.5 nM (6 of 6 replicates; controls 2 of 18). The variant K24H/S25L/W56N/E61C gave 540 pM (6 of 6 replicates; controls 1 of 18). With V29I/W56H the result was 28 nM (12 of 12 replicates; controls 4 of 36). With S25L/S26E/Q27W/W56N the result was 210 pM (6 of 6 replicates; controls 0 of 18).

For Y97S/H98D/P101H, the assay gave nd (0 of 6 replicates; controls 0 of 18). For S25I/V29M/K36H/R99G, the assay gave 38 nM (6 of 6 replicates; controls 1 of 18). The variant S25L/S26Q/W56E/S62D showed 500 pM (6 of 6 replicates; controls 1 of 18). For S25V/V29T/W56N/T59V/E61S, the assay gave 3.5 nM (6 of 6 replicates; controls 0 of 18). The variant N37V/W56S gave 220 nM (3 of 6 replicates; controls 0 of 18). The variant W56Y/S58T/R99T showed 42 nM (6 of 6 replicates; controls 2 of 18).

For S25L/V29M/L30G/W56D, the assay gave 1.0 nM (6 of 6 replicates; controls 4 of 18). With Q27P/R34H/W56N/E61M the result was 280 pM (6 of 6 replicates; controls 0 of 18). The variant K24H/Q27P/V29W/E32D/S38H/W56N gave 1.1 nM (6 of 6 replicates; controls 0 of 18). For S25F/L30M/W56D, the assay gave 550 pM (6 of 6 replicates; controls 2 of 18). The variant S25L/S26Q/V29E/L30E/W56H gave 630 pM (6 of 6 replicates; controls 0 of 18). The variant S25F/V29Y/K36S/W56N showed 660 pM (6 of 6 replicates; controls 0 of 18).

The variant L30S/W56Q/H98M showed 720 pM (6 of 6 replicates; controls 0 of 18). For L30Q/Y31D/E32N/R34V/W56G, the assay gave 3.1 nM (6 of 6 replicates; controls 1 of 18). The variant S25L/V29W/W56G/T59L showed 800 pM (6 of 6 replicates; controls 1 of 18). The variant S25V/S28G/V29F/S33Q/N35Q/W56N gave 2.7 nM (6 of 6 replicates; controls 2 of 18). The variant S25V/V29H/Y31G/W56N/A57G showed 1.5 nM (6 of 6 replicates; controls 0 of 18). The variant Q27E/A57V/S62P/H98M gave 57 nM (4 of 6 replicates; controls 1 of 18).

With V29W/Y31K/A40S/W56G/T59A the result was 3.4 nM (6 of 6 replicates; controls 0 of 18). For S25V/R34Q/S62D, the assay gave 6.6 nM (6 of 6 replicates; controls 0 of 18). With Q27D/T59E/R99Y/P101H the result was nd (0 of 6 replicates; controls 0 of 18). The variant S25L/V29E/W56E/Q96S showed 1.9 nM (6 of 6 replicates; controls 0 of 18).

From the list, the first 2 with no signal in any replicate:

changes,apparent Kd,detected,control signals
Y97S/H98D/P101H,nd,0/6,0/18
Q27D/T59E/R99Y/P101H,nd,0/6,0/18

Where one sequence has several entries in the source, the replicates are pooled. The authors averaged sequences with at least three values out of six and counted those with two or fewer as poor binders. Nonspecific signal, from three strains lacking the peptide, appeared in 4% of pairings of all light chain designs, centred on 430 nM (5% of these signals below 38 nM); values are not corrected for it. Also given: how often the same scFv was detected with the empty control strains. Of ten entries with the parent sequence, four were seen in most replicates (averages 2.2 nM to 240 nM), three in one and three in none, so single entries are noisy. A sequence measured in both rounds can read differently, since the two assays cover different ranges.